The assay relates to rats with intracerebral hemorrhage. The experiment in a line: Lethality of rats with intracerebral hemorrhage of average severity. The class given is in vivo. How it is done:
Neuroprotective effect of 3,2′-spiro-pyrrolo-2-oxindole derivative (SI-86 compound) was studied on IUD model of moderate severity modeled under propofol anesthesia (60 mg/kg intraperitoneally (ip)) by autoblood administration into the brain internal capsule (stereotactic coordinates of the projection: H=7.0 mm, L=3.0 mm, A=1.5 mm from bregma) ([…]) (Method for reproduction of intracerebral hemorrhage in rats/O. K. Yarosh, S. V. Kyrychenko, S. P. Halimonchyk [et al.]//Circulation and hemostasis.-2005.-No. 1.-P. 77-81). The chosen model allows to reproduce clinical pattern of […] and is adequate for clinical study of potential neuroprotective agents.
As comparators the following drugs were used: mexydol (“Mexydol” UC Pharmasoft, Russia), 100 mg/kg; citicoline (“Somazina” Ferrer International, SA, Spain), 250 mg/kg; aktovegin (“Aktovegin”, Nycomed, Austria), 16 mg/kg pyracetam (“Pyracetam” Darnitsa, Ukraine), 400 mg/kg. According to the latest clinical guidelines regarding the treatment of patients with CVA approved by the Ministry of Health of Ukraine (Order No. 602 dated 3 Aug. 2012), all these drugs are allowed to be included into schemes for intensive patients therapy with CVA as neuroprotective agents. They were used at recommended doses for preclinical studies (McGrow C. P. Experimental Cerebral Infarction Effects of Pentobarbital in Mongolian Gerbils/C. P. McGrow//Arch. Neurol.-1977.-Vol. 34, No. 6.-P. 334-336). Experimental therapy of acute cerebral ischemia with SI-86 compound and comparator started 1 hour after IUD once a day for 21 days. The SI-86 derivative was investigated in conventionally effective dose of 10 mg/kg […] (iv)-dose that according to the results of our previous study provides maximum antihypoxic activity of SI-86 compound. Reference drugs were injected intraperitoneally (ip). Rats of control pathology group were injected by autoblood and as therapy 0.9% NaCI solution was administered calculated for 2 ml/kg […].
Pseudo-operated rats were exposed to all interventions (anesthesia, craniotomy) excluding autoblood administration that leveled traumatic impact of experimental conditions.
Evaluation of the ability of animals to learn and memorize of aversive stimulus was examined in the test of conditioned response of passive avoidance (CRPA). The technique is based on innate rat instinct to limited shadowy space. The study in rats was conducted in two-compartment unit consisted of two sections—light and dark. An animal was arranged into light compartment, fixing latency time for entering into the dark compartment, wherein rat received current irritation and ran in the light compartment. CRPA retention was tested every other day under latency time change of rat entering into the dark compartment. Also the number of animals was noted not fully entered the dark chamber. Cerebroprotective efficiency criteria of studied compounds were also animal death term (days) and their mortality rate (in %).
Quantitative data were processed using statistical StatPlus 2009 processing. The statistical significance of differences was assessed by Fisher's angular transformation (lethality outcome), also parametric t Student criterion were used in case of normal distribution of variation series, nonparametric W White criterion—in its absence.

[1] abbreviates: 12 h, SI-86 10 mg/kg iv, mexydol 100, citocoline 250, actovegin 16, pyracetam 400 mg/kg.

Marks after values point to notes of the source that are not given here.

For the molecule `C[N+](C)(C)CCOP(=O)(O)OP(=O)([O-])OC[C@H]1O[C@@H](n2ccc(N)nc2=O)[C@H](O)[C@@H]1O` [citocoline], the “Lethality, %” value is on record as 0/0%*^# under setting [1]; 0/0%*^# (24 h, same doses); 0% (24 h, same doses, listed as citicoline); 8.5% (48 h, same doses); 12.8% (72 h, same doses); 14.9% (96 h, same doses). Further, the “Lethality, abs.” value under setting [1] was 0/0%*^#; the “Lethality, abs.” value (24 h, same doses) is recorded as 0/0%*^#; the “Lethality, abs.” value (48 h, same doses) was determined as 4; the “Lethality, abs.” value (72 h, same doses) is 6; the “Lethality, abs.” value (96 h, same doses) is on record as 7. For the same molecule, the cerebroprotective protection (24 h observation, SI-86 10, mexydol 100, citicoline 250 mg/kg) is 100%. Further, where the note is “within 4 days of therapy, same doses”, the “reduction of mortality in rats at the end of the observation period relative to control” value was 15.1%.

Values taken from patent publication US20160297828A1, “SPIROCYCLIC COMPOUNDS CONTAINING SPIRO[INDOLYL-3,1'-PYRROLO[3,4-C]PYRROLE] CORE AND SULPHUR-CONTAINING AMINO ACID RESIDUES” (priority 2013, published 2016).
